Measured values taken from US8546322B2, “Inhibitors of intracellular urokinase plasminogen activator and methods of use thereof” (The Regents of the University of California, priority 2007, dated 2013).

Chains of the proteins cited; added tags and fusions are not shown. Residues count along the entry.
UniProt P00750, 36-562 limits assumed: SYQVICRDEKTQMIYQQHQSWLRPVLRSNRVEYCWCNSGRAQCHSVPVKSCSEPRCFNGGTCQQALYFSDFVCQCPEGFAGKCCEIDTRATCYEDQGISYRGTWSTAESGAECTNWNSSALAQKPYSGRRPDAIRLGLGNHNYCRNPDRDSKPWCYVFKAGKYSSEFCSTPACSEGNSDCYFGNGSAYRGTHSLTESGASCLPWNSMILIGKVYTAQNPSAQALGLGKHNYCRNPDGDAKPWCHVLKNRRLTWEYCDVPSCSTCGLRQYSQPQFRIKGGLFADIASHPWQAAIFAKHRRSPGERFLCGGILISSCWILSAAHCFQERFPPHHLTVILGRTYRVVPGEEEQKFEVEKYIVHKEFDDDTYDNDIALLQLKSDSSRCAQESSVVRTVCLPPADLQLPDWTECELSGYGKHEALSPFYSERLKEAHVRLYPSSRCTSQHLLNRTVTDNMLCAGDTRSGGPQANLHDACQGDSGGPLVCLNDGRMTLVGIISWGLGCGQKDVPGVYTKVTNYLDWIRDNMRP
UniProt P19634, whole entry: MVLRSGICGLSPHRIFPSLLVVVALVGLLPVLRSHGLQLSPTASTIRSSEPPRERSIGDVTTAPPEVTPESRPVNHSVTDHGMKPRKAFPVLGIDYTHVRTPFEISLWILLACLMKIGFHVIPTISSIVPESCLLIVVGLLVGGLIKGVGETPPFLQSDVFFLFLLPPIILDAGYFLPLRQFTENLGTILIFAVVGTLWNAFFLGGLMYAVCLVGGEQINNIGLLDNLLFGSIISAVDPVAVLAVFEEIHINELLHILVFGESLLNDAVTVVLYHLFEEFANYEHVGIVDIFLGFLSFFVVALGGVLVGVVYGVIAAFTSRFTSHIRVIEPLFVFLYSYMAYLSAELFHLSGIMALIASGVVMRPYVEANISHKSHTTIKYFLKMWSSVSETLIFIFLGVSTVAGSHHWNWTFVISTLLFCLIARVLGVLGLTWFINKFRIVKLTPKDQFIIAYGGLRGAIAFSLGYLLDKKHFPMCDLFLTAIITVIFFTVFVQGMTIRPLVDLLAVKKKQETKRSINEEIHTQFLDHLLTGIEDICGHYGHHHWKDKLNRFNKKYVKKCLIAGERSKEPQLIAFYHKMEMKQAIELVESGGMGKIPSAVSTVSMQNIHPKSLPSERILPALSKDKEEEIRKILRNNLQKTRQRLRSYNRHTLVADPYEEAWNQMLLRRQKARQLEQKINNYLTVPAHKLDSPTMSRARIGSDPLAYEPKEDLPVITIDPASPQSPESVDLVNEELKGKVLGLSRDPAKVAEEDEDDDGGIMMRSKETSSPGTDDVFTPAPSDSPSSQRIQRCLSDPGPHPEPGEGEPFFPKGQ

What was measured:
U87 glioma cells [1] = test: U87 glioma cell adherence to extracellular matrix (ECM)
U87 glioma cells [2] = test: U87 proliferation and survival, tetrazolium (WST) live cell assay and manual cell counts; conditions: for proliferation after drug removal at 24 h (in words): drug removed at 24 h, read at 48 h
U87 glioma cells [3] = test: U87 cell death, manual cell counts with trypan blue exclusion; assay type: cell-based, human; conditions: for glioma cell death / viability (in words): 48 h
uPA = uPA (Homo sapiens, UniProt P00749); test: uPA enzymatic inhibition with peptide-specific fluorogenic substrates; assay type: biochemical
tPA = tPA (Homo sapiens, UniProt P00750); test: tPA enzymatic inhibition; conditions: listed as AmC(5)-GlyOBn
[4] = system: gelatinases expressed by U87 glioma cells (MMP-2, MMP-9); test: Gelatinase (MMP-2, MMP-9) inhibition; conditions: listed as AmC(5)-GlyOBn
NHE1 = NHE1 (Homo sapiens, UniProt P19634); test: Sodium-proton exchange (NHE1) inhibition in glioma cells (BCECF fluorometry)
U87 glioma cells [5] = test: Cell permeation by fluorescent microscopy of U87 glioma cells; assay type: cell-based; conditions: 50 μM, 90-180 min incubation
glioma cells [6] = test: Glioma cell volume in vitro and in intracerebral xenografts (7 tesla NMR)
glioma cells [7] = test: Glioma cell invasion
[8] = system: normal primary astrocytes; test: Effect on normal primary astrocytes; assay type: cell-based
[9] = system: intracerebral human U87 glioma xenografts; test: Intracerebral U87 glioma xenograft growth (NMR, stereology); assay type: in vivo, athymic rats
[10] = Neuropathology and behaviour with intracranial administration; assay type: in vivo; conditions: for neuropathological changes in normal brain cell types (in words): intracranial administration, 10-14 days
Description: […]. For amiloride, parasaggital sections were stained with hematoxylin and eosin in addition to using specialized stains for neuronal damage (FluoroJade) and for myelinated fiber tracts (luxol fast blue). […]. There were no premature deaths.
. Each experimental and control group described below consist of a minimum of 10 animals per group. Experimental Design. The in vivo toxicity studies initially employ single, daily intracranial infusions of the candidate compound into a group of Sprague-Dawley rats for 13 days. Treated S-D animals are compared to a group of 10 control animals receiving intracranial drug vehicle injections. The infused drug concentration is based upon the cell line studies and adjusted for the low protein content of the cerebrospinal fluid which is 0.2% that of serum. Animals are behaviorally assessed for toxicity. […]. General Health and Behavioral Studies. Body weights and behavioral parameters are assessed daily in drug-treated and vehicle-treated rats during 12 day treatment paradigms. Currently, standardized behavior tests are used, which include quantitative measures of vestibulomotor function, fine motor coordination, ambulation, and spatial memory. A daily neurotoxicity behavioral sign checklist (72) to detect neurological signs of toxicity and seizures is also performed. Acquisition of spatial memory is particularly sensitive for detecting subtle drug toxicities (Preliminary Results). Body weight is used as a measure of general health. Neuropathological Studies: Cytological studies are performed in the same drug-treated and vehicle-treated rats at the conclusion of behavioral testing. Fixation and sectioning techniques are described in the Experimental Methods section. Hematoxylin and eosin are used routinely to survey for neuropathological changes. Luxol fast blue stains myelin tracts to evaluate potential white matter changes. […] Assessment of brainstem white matter tracts with luxol fast blue staining includes the spinocerebellar, vestibulospinal, corticospinal, spinothalamic. Specialized stains for reactive astrocytes, neuronal chromatolysis, etc. are added if brain lesions are detected. […]. Potential Problems and Alternatives. […]. However, there were problems with spatial memory that persisted throughout the nine day infusion period. These behavioral studies indicate the need to behaviorally assess treatment of the glioma tumor models.

[11] = 300 pmol/d intracranial once daily, day 1 to 10 postimplantation, 14 xenografts

**Q.** For `N=C(N)NC(=O)c1nc(Cl)c(NCC(=O)OCc2ccccc2)nc1N`, which “glioma cell adherence to ECM (in words)” value (U87 glioma cells [1]) is on record?
**A.** significant inhibition of adherence to ECM

**Q.** What about the “% of control attachment at 4 h” value (U87 glioma cells [1]; 250 microM, U87 cells on ECM, 4 h) of the same compound?
**A.** 15 ± 5 %

**Q.** What about the “cell numbers as % of control at 48 h (WST assay)” value (U87 glioma cells [2]; 250 microM, 48 h treatment) of the same compound?
**A.** 6%

**Q.** And the “reduction in viable cell numbers (WST live cell assay)” value (U87 glioma cells [2]; after 48 h)?
**A.** 84%

**Q.** And the “proliferation after drug removal at 24 h (in words)” value (U87 glioma cells [2]; listed as AmC(5)-Gly-OBn)?
**A.** permitted glioma cells to resume proliferation

**Q.** What about the “proliferation after drug removal at 24 h (in words)” value (U87 glioma cells [2]; listed as AmC(5)-GlyOBn) of the same compound?
**A.** inhibition of proliferation was reversed by 48 h

**Q.** What about the “glioma cell proliferation (in words)” value (U87 glioma cells [2]; listed as AmC(5)-Gly-OBn) of the same compound?
**A.** inhibited proliferation

**Q.** What about the “glioma cell proliferation (in words)” value (U87 glioma cells [2]; listed as AmC(5)-GlyOBn) of the same compound?
**A.** inhibited

**Q.** What about the “% cell death, trypan blue” value (U87 glioma cells [3]; 250 microM, 48 h treatment) of the same compound?
**A.** (84) %

**Q.** And the “glioma cell death / viability (in words)” value (U87 glioma cells [3]; listed as AmC(5)-Gly-OBn)?
**A.** caused subsequent glioma cell death by 48 h

**Q.** And the “glioma cell death / viability (in words)” value (U87 glioma cells [3]; listed as AmC(5)-GlyOBn)?
**A.** caused U87 glioma cell demise at 48 h

**Q.** What about the “inhibition of uPA (in words)” value (uPA) of the same compound?
**A.** reversibly and comparably inhibit

**Q.** What about the IC50 (uPA; read-out: IC50, inhibition of intracellular glioma uPA, intracellular glioma uPA) of the same compound?
**A.** 7.5 µM

**Q.** What about the “inhibition of tPA (in words)” value (tPA) of the same compound?
**A.** does not inhibit

**Q.** What about the “inhibition of gelatinases MMP-2, MMP-9 (in words)” value [4] of the same compound?
**A.** does not inhibit

**Q.** And the “inhibition of NHE1 (in words)” value (NHE1)?
**A.** reversibly and comparably inhibit

**Q.** What about the “inhibition of NHE1 (in words)” value (NHE1; listed as AmC(5)-Gly-OBn) of the same compound?
**A.** same potencies of AmC(5)-Gly

**Q.** What about the “cell permeation (in words)” value (U87 glioma cells [5]) of the same compound?
**A.** permeates glioma cells

**Q.** What about the “cell permeation (in words)” value (U87 glioma cells [5]; listed as AmC(5)-Gly-OBn) of the same compound?
**A.** cell permeant

**Q.** What about the “cell permeation (in words)” value (U87 glioma cells [5]; listed as AmC(5)-GlyOBn) of the same compound?
**A.** rapidly permeates cells

**Q.** What about the “glioma cell volume (in words)” value (glioma cells [6]) of the same compound?
**A.** shrink glioma cell volumes

**Q.** What about the “glioma cell invasion (in words)” value (glioma cells [7]) of the same compound?
**A.** inhibits

**Q.** And the “effect on normal primary astrocytes (in words)” value [8]?
**A.** no effect

**Q.** What about the “tumors with marked retardation in the initial rates of tumor growth” value [9, 11] of the same compound?
**A.** 57%

**Q.** What about the “xenografts that failed to become established” value [9, 11] of the same compound?
**A.** 43%

**Q.** And the “mean tumor volume at 10d postimplantation relative to vehicle-treated controls” value ([9]; 3 days pretreatment, then once daily intracranial for 10 days, 6 treated animals)?
**A.** < 30%

**Q.** What about the “treated animals without demonstrable tumors (stereology)” value ([9]; 3d pre-treatment, then daily intrathecal 300 pmol/d for 10d) of the same compound?
**A.** Three of the seven

**Q.** What about the “xenograft tumor growth (in words)” value ([9]; intracranial administration) of the same compound?
**A.** prevented or significantly impaired U87 tumor proliferation

**Q.** And the “behavioral side effects and seizures (in words)” value ([10]; efficacious intracranial administration)?
**A.** but not

**Q.** What about the “neuropathological changes in normal brain cell types (in words)” value (“neuropathological changes” below) ([10]; listed as AmC(5)-Gly-OBn) of the same compound?
**A.** no effect

**Q.** What about the “neuropathological changes” value ([10]; listed as AmC(5)-GlyOBn) of the same compound?
**A.** Neuropathological changes were not observed

**Q.** What about the “neuropathological changes” value ([10]; listed as AmC(5)Gly-OBn) of the same compound?
**A.** Neither compound produces neuropathological changes

Read-outs that look alike come from different tables or passages of the source.
